By UniProt entry, the sequences of proteins in these tests, tags left out. Where a name states a change or a piece, a line headed by the entry shows the natural chain unless it says otherwise.
UniProt P34914: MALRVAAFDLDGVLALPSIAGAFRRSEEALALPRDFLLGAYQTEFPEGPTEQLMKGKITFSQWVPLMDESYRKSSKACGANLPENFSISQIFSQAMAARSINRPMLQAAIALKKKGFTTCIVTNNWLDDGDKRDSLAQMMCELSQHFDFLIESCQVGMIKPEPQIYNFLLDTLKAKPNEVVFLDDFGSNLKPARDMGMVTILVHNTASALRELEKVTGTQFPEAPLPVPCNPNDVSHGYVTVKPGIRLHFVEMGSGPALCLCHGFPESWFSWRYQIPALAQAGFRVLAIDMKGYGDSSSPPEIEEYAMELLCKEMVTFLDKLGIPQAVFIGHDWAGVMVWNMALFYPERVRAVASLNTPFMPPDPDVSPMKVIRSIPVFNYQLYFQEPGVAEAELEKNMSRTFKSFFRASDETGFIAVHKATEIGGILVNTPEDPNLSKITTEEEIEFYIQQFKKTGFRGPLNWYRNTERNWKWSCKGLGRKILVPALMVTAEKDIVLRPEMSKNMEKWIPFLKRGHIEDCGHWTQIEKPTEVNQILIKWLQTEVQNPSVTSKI
UniProt P07099: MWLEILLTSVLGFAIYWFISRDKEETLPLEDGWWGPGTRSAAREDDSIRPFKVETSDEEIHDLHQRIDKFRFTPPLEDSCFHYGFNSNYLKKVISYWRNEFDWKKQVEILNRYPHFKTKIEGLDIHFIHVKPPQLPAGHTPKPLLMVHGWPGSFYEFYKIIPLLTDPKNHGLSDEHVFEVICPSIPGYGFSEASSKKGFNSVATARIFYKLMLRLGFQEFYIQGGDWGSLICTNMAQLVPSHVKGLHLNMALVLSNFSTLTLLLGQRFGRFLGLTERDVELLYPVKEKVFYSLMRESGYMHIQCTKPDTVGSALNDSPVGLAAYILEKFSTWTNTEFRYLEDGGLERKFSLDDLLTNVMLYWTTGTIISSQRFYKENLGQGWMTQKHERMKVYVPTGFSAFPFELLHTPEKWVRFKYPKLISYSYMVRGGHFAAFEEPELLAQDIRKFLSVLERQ

In patent publication US20060035869A1 (published 2006):

Columns and labels:
mouse sEH = mouse sEH (Mus musculus, UniProt P34914); assay: Inhibition of recombinant mouse soluble EH, spectrophotometric NEP2C assay; format: biochemical; conditions: FIG. 1
microsomal EH = microsomal EH (Homo sapiens, UniProt P07099); assay: biochemical; conditions: read-out: % Inhibition by 100 μM of 2

With `O=C(NC1CCCCC1)NC1CCCCC1` [Compound 2, N,N′-dicyclohexylurea] as the compound, how does the “effect of time on the inhibition of mouse sEH” value (mouse sEH) read?
The value was “stable over time”.

And the inhibition at 100 µM (microsomal EH)?
Its inhibition at 100 µM is 0.5 ± 0.8%.

What about the “% Inhibition by 100 μM of 2” value (pepsin) of the same compound?
Its value is 0.1 ± 0.1%.
